The values below come from patent US20170370933A1, “METHODS AND COMPOSITIONS FOR IMMUNOMODULATION” (Nodality, Inc., priority 2013, published 2017).

For this assay, the system named is PD-1 (p-ERK in PD1+ cells). In words: PD-1 functional status in PD-1-induced healthy PBMC (p-ERK). The format is cell-based, human. As to conditions: PD1+ gated cells; anti-CD3, anti-CD28 plus biotinylated recombinant PDL1, avidin cross-linked. As to the method:
In brief, PBMCs were isolated from healthy blood donors according to approved protocol. PBMCs were first cultured in RPMI 1640 plus 10% FBS with anti CD3 and anti CD28 for 48 hours to increase levels of surface expression of PD-1. Subsequently, cells were washed and rested overnight in RPMI 1640 plus 10% FBS. For stimulation experiments, PBMC (1.5×10e5 cells) were incubated with anti-CD3, anti-CD28 and anti IgG Biotinylated Abs or anti-CD3, anti-CD28 biotinylated Abs plus biotinylated recombinant PDL1. Antibodies were then cross-linked with Avidin. At a certain time point, the reaction was stopped and the cell fixed with PFA 2.4%. Cells were them processed for SCNP analysis for selected read-outs. […] All cells were gated so that PD1+ cells were used.

Consider “recombinant PDL1: biotinylated recombinant PDL1, IMR modulator”, for which the “p-ERK in cells activated with TCR activator in the presence of IMR modulator” value is “low levels of p-ERK”.
